Results: US9586914B2, “Modulators of C3a receptors” (THE UNIVERSITY OF QUEENSLAND, priority 2011, dated 2017)
Read-outs that look alike come from different tables or passages of the source.

Legend:
[1] = target: T1, C3a receptor (C3aR) (Homo sapiens, UniProt Q16581); assay: Competitive binding with [^125I]-C3a in HMDM; details: for -Log IC50: Table 14, binding affinity for C3aR on HMDM
T1 construct: peripheral blood mononuclear cells were isolated from buffy coat (obtained from Australian Red Cross Blood Service, Kelvin Grove); endogenous in cells; host or cells: primary human monocyte-derived macrophages (HMDM) differentiated from CD14+ monocytes of donor buffy coat
T1 sequence (Q16581 1-482): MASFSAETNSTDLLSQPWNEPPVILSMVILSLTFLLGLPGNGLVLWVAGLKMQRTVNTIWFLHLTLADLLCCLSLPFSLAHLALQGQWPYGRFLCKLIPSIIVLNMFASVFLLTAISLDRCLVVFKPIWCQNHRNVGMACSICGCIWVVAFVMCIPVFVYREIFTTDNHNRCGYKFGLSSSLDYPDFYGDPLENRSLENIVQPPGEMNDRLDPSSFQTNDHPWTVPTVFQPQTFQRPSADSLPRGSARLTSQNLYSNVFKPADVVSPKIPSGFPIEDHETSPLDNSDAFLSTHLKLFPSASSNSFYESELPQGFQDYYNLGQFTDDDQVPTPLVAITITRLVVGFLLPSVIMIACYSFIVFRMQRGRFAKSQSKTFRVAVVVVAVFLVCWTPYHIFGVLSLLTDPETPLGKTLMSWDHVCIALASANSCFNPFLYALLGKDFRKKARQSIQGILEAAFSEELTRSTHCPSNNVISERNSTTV
From the text: For HMDM, peripheral blood mononuclear cells were isolated from buffy coat (obtained from Australian Red Cross Blood Service, Kelvin Grove) using Ficoll-paque density centrifugation (GE Healthcare Bio-Science, Uppsala, Sweden). CD^14+ monocytes were positively selected using CD^14+ MACS magnetic beads (Miltenyi Biotech, Auburn, Calif., USA). […] Cells were harvested by gentle scraping in saline solution and replated for use on Day 7. […] Unbound radioactivity was removed by filtration through glass microfiber filters GF/B (Whatman Iner. […] The filter was washed 3 times with cold buffer (50 mM Tris-HCl) pH 7.4. […] The −log IC50 for each compound was calculated for separate experiments and express as an arithmetic mean standard error (SE). IC50 values were expressed as a geometric mean.

[2] = target: T2, C3aR (Homo sapiens, UniProt Q16581); assay: Calcium mobilization assay in HMDM (agonist/antagonist activity); format: cell-based
T2 construct: peripheral blood mononuclear cells were isolated from buffy coat (obtained from Australian Red Cross Blood Service, Kelvin Grove); endogenous in cells; host or cells: primary human monocyte-derived macrophages (HMDM) differentiated from CD14+ monocytes of donor buffy coat
T2 sequence (Q16581 1-482): T1 sequence (Q16581 1-482)
Protocol: Harvested HMDM cells were washed with 0.9% NaCl solution by centrifugation at 2500 rpm for 5 min, followed by resuspension of the cell pellet with complete media. Cells were seeded at 5×10^4 cells/well in a 96-well black-wall, clear bottom plate (DKSH, Zurich), and left overnight to adhere at 37° C. On the day of the experiment, supernatant was removed and cells were incubated in dye loading buffer (Hank's Balanced Salt Solution (HBSS) with 4 μM Fluo-3, 25 μL pluronic acid, 1% fetal bovine serum (FBS) and 2.5 mM probenecid) for one hour at 37° C. Cells were then washed twice with HBSS and transferred to a Fluorostar spectrofluorimeter (BMG, Durham N.C.) for oxazole compound injection and fluorescence measurements.
Various compounds were examined in the calcium mobilization assay for agonist or antagonist activity compared to hC3a and to the known antagonist SB290157.
HMDMs were seeded into black-wall, clear bottom 96-well plates (Corning Incorporated, NY) at 50,000 cells/well and left to incubate at 37° C. with 5% CO2 overnight for cells to adhere. The medium was removed before being washed with the assay buffer (1×HBSS, 20 mM HEPES, 2.5 mM probenecid, pH 7.4). To each well was added 100 μL of dye-loading buffer made up of 12 mL calcium buffer, 1% FBS, 25 μL of Fluo-3 dye (final concentration of 4 μM) and 25 μL of 20% pluronic acid. […] To each well was added 50 μL of fresh assay buffer before the plate was loaded into a FLIPR (Fluorescent Imaging Plate Reader) that can inject treatments and measure any calcium release. To generate agonist plots, calcium release was monitored for 300 seconds. To generate antagonist plots, calcium release was recorded for 900 seconds, which at the same time would allow incubation for the antagonists. After the initial incubation period, an agonist would be added and the response was recorded for 300 seconds. Intracellular release of calcium was recorded via fluorescence measurements at wavelength of 485 nm for excitation and 520 nm for emission.

Compound | IC50 ([1]; Table 6, competitive binding with [^125I]-C3a, HMDM, read-out: IC50 (converted)) [nM] | IC50 ([1]; Table 6, competitive binding with [^125I]-C3a, HMDM, read-out: pIC50 ± SEM (converted)) [nM] | IC50 ([1]; Table 8, HMDM, read-out: Receptor Binding Affinity ^125I IC50) [nM] | IC50 ([1]; Table 12, read-out: Receptor Binding Affinity IC50) [nM] | IC50 ([1]; Table 12, read-out: Receptor Binding Affinity pIC50 ± SE (converted)) [nM] | -Log IC50 [1] | EC50 ([2]; Table 9, Ca^2+ mobilization, HMDM, read-out: EC50) [nM] | IC50 ([2]; Table 10, HMDM, read-out: Antagonist Activity Ca^2+ IC50) [nM] | EC50 ([2]; Table 12, read-out: Apparent Agonist Activity EC50) [nM]
N=C(N)NCCC[C@H](NC(=O)c1ccc(C(c2ccccc2)c2ccccc2)o1)C(=O)O [Compound 57, 5-Diphenylmethyl-furan-2-carboxyl-Arg-OH] | 1300 | 1320 | 302 | 1300 | 1320 | 7.3 | 645 | 1800 | 645
N=C(N)NCCC[C@H](NC(=O)c1cnc(C(c2ccccc2)c2ccccc2)[nH]1)C(=O)O [Compound 77, 2-Diphenylmethyl-thiazole-4-carboxyl-Arg-OH] | – | – | – | – | – | 8.2 | – | – | –
